From patent publication US11629193B2, “EGFR binding molecules” (F-STAR BETA LIMITED, priority 2016, dated 2023)
“Also recorded” adds a separate entry of the source.

Tested on: LXFA 677 PDX tumours
Experiment: In vivo efficacy in patient-derived lung adenocarcinoma xenograft model LXFA 677
Set-up: species or system mice
Conditions: seven doses intravenously over two weeks

cetuximab [reference compound]
tumour remission (Example 10, 20 mg/kg): complete tumour remission in all treated mice; also recorded: complete tumour regression | tumour remission (Example 21, 20 mg/kg): complete tumour regression
